Data: BindingDB's records for 26043948

Chains of the proteins cited; added tags and fusions are not shown. Residues count along the entry.
UniProt P22303, 32-614 limits assumed: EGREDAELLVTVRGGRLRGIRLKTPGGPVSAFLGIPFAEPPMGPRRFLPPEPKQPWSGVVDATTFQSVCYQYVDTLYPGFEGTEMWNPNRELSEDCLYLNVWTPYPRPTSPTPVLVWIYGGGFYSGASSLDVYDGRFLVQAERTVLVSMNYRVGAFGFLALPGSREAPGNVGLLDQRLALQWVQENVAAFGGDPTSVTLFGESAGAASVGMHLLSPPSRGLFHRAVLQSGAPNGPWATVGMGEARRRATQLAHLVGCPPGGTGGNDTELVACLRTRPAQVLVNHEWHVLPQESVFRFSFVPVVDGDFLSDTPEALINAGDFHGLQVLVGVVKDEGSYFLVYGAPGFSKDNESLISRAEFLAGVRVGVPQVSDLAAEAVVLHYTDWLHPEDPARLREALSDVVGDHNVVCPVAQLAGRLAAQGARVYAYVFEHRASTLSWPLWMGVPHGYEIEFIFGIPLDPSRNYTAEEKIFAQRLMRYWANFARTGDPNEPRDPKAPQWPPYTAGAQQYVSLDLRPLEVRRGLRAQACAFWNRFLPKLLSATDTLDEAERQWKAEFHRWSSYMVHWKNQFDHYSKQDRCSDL

Columns and labels:
Acetylcholinesterase [1] = target: T1, Acetylcholinesterase (Homo sapiens, UniProt P22303); test: ASSAY_NAME: ChEMBL_1507812 (CHEMBL3598676) DESCRIPTION: Reactivation of VX-inhibited human acetylcholinesterase assessed as dissociation constant incubated for 60 mins using ATChI substrate by DTNB dye based UV-visible spectrophotometry
Acetylcholinesterase [2] = target: T1, Acetylcholinesterase; test: ASSAY_NAME: ChEMBL_1507810 (CHEMBL3598674) DESCRIPTION: Reactivation of sarin-inhibited human acetylcholinesterase assessed as dissociation constant incubated for 60 mins using ATChI substrate by DTNB dye based UV-visible spectrophotometry

## COc1ccc(-c2csc(NC(=O)C[n+]3cccc(/C=N/O)c3)n2)cc1
Acetylcholinesterase [1]
  Kd: 114 µM
Acetylcholinesterase [2]
  Kd: 641 µM
